# Measured vapor pressure values of organic chemicals

Data: OPERA 2.9 data sets, kmansouri/OPERA on GitHub.

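These are experimental values that the OPERA curators gathered from public databases to train and test their QSAR models. One number stands for a compound and property, with no spread given. Conditions of the individual experiments are not part of the data. A value may pool stereoisomers or salt forms, and the file does not say which form was measured. Some entries may be limits or estimates that an upstream database listed as plain numbers.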

Vapor pressure is log10 of mmHg; the set covers 15 to 30 °C, mostly 20 to 25 °C. "via" names the databases from which the curators took the value.

For C=CC(=O)OCCCCCCCCCCCC [Lauryl acrylate] the data give vapor pressure -4.124 (log10 mmHg) (via eChemPortal). CC(CC(=O)Cl)CC(C)(C)C (stereo not drawn) [3,5,5-Trimethylhexanoyl chloride] has vapor pressure -0.292 (log10 mmHg) (via eChemPortal). Listed for C[C@]12CCC(=O)C=C1C=C[C@@H]1[C@@H]2CC[C@@]2(C)[C@H]1CC[C@@]21CCC(=O)O1 [Canrenone]: vapor pressure -12.45 (log10 mmHg) (via eChemPortal). CCCCOC(=O)/C=C\C(=O)O [Butyl hydrogen maleate] is reported with vapor pressure -2.824 (log10 mmHg) (via eChemPortal). The entry for CCOC(=O)c1cnn(C)c1S(=O)(=O)NC(=O)Nc1nc(OC)cc(OC)n1 [Pyrazosulfuron-ethyl] lists vapor pressure -6.959 (log10 mmHg) (via OCHEM).

Clc1ccccc1-c1c(Cl)c(Cl)cc(Cl)c1Cl [2,2',3,5,6-Pentachlorobiphenyl] has vapor pressure -3.943 (log10 mmHg) (via OCHEM). CC(C)CCOC(=O)c1ccccc1C(=O)OCCC(C)C [Isoamyl phthalate] is reported with vapor pressure -3.727 (log10 mmHg) (via eChemPortal). C=C(C)C(C)(C)O [2,3-Dimethyl-3-buten-2-ol] has vapor pressure 0.966 (log10 mmHg) (via eChemPortal). Listed for C=C[Si](ON=C(C)CC)(ON=C(C)CC)ON=C(C)CC [2-Butanone, O,O',O''-(ethenylsilylidyne)trioxime]: vapor pressure -3.727 (log10 mmHg) (via eChemPortal). O=C(O)c1cccc2ccccc12 [1-Naphthoic acid] has vapor pressure -5.054 (log10 mmHg) (via OCHEM).

Listed for C=C[Si](C)(C)C [Silane, ethenyltrimethyl-]: vapor pressure 2.398 (log10 mmHg) (via eChemPortal). Clc1cc(Cl)c(-c2c(Cl)cccc2Cl)c(Cl)c1Cl [2,2',3,4,6,6'-Hexachlorobiphenyl] is reported with vapor pressure -4.325 (log10 mmHg) (via OCHEM). Listed for CCC(C)c1ccccc1O (stereo not drawn) [2-(Butan-2-yl)phenol]: vapor pressure -1.651 (log10 mmHg) (via eChemPortal). COC(=O)C(C)O (stereo not drawn) [Methyl 2-hydroxypropanoate] has vapor pressure 0.407 (log10 mmHg) (via PubChem). COc1cc(C)cc(OC)c1OC [3,4,5-Trimethoxytoluene] has vapor pressure -2.21 (log10 mmHg) (via eChemPortal).

CCC(C)c1cc(C(C)CC)c(O)c(C(C)CC)c1 (stereo not drawn) [Phenol, 2,4,6-tris(1-methylpropyl)-] is reported with vapor pressure -3.236 (log10 mmHg) (via eChemPortal). Cc1oncc1C(=O)O [5-Methylisoxazole-4-carboxylic acid] is reported with vapor pressure -5.921 (log10 mmHg) (via eChemPortal). Clc1cc2ccccc2cc1Cl [2,3-Dichloronaphthalene] is reported with vapor pressure -2.606 (log10 mmHg) (via OCHEM). Cc1nc(C)c(C(=O)Nc2ccccc2)s1 [2,4-Dimethyl-N-phenyl-5-thiazolecarboxamide] is reported with vapor pressure -7.893 (log10 mmHg) (via OCHEM). O=C(Cl)C(F)(F)C(F)(F)C(F)(F)F [Heptafluorobutyryl Chloride] has vapor pressure 2.572 (log10 mmHg) (via ChemicalBook).

Listed for OCCOCCCl [Ethanol, 2-(2-chloroethoxy)-]: vapor pressure -0.77 (log10 mmHg) (via eChemPortal). For Clc1cccc(-c2c(Cl)cc(Cl)cc2Cl)c1 the data give vapor pressure -3.896 (log10 mmHg) (via OCHEM). O=C1/C(=C2/Nc3ccc(Br)cc3C2=O)Nc2ccccc21 [Bromindigo R] is reported with vapor pressure -6.523 (log10 mmHg) (via OCHEM). The entry for CC(=O)N1CCN(c2ccc(O)cc2)CC1 [4-(4-Acetylpiperazin-4-yl)phenol] lists vapor pressure -9.907 (log10 mmHg) (via eChemPortal). Clc1cccc(-c2cc(Cl)c(Cl)c(Cl)c2)c1 is reported with vapor pressure -4.854 (log10 mmHg) (via OCHEM).

O=S(=O)([O-])CCN1CCN(CCS(=O)(=O)[O-])CC1.[Na+].[Na+] [1,4-Piperazinediethanesulfonic acid, disodium salt] is reported with vapor pressure -9.634 (log10 mmHg) (via eChemPortal). The entry for C=C[Si](OCCOC)(OCCOC)OCCOC [Tris(2-methoxyethoxy)vinylsilane] lists vapor pressure -2.487 (log10 mmHg) (via eChemPortal). Listed for CCC[Si](OC)(OC)OC [Trimethoxypropylsilane]: vapor pressure 1.035 (log10 mmHg) (via eChemPortal). CCB(CC)c1cccnc1 [Diethyl(3-pyridyl)borane] has vapor pressure -9.907 (log10 mmHg) (via eChemPortal). Listed for O=C1CCCCO1 [Tetrahydro-2H-pyran-2-one]: vapor pressure -1.092 (log10 mmHg) (via eChemPortal).

CCCOC(=O)c1ccc(O)cc1 [Propylparaben] has vapor pressure -5.402 (log10 mmHg) (via eChemPortal). O=C(O)CN(CCO)CCO [N,N-(2-Dihydroxyethyl)glycine] has vapor pressure -4.624 (log10 mmHg) (via eChemPortal). The entry for O=C(O)CCC(=O)C(=O)O [alpha-Ketoglutaric acid] lists vapor pressure -4.144 (log10 mmHg) (via eChemPortal). The entry for C[N+](C)(C)CCOP(=O)([O-])[O-].[Ca+2].[Cl-] [Calcium phosphorylcholine] lists vapor pressure -13.16 (log10 mmHg) (via eChemPortal). For CC(C)(N=NC(C)(C)C1=NCCN1)C1=NCCN1.Cl.Cl the data give vapor pressure -5.347 (log10 mmHg) (via eChemPortal).

The entry for O=C1NC(c2ccc(-c3ccccc3)cc2)=C2C(=O)NC(c3ccc(Cl)cc3)=C12 lists vapor pressure -6.152 (log10 mmHg) (via eChemPortal). CCC(C)=NO[Si](ON=C(C)CC)(ON=C(C)CC)ON=C(C)CC [2-Butanone, O,O',O'',O'''-silanetetrayltetraoxime] has vapor pressure -4.905 (log10 mmHg) (via eChemPortal). C=C(C)C(=O)OCC(F)(F)C(F)(F)C(F)(F)C(F)F [1H,1H,5H-Perfluoropentyl methacrylate] has vapor pressure 0.969 (log10 mmHg) (via eChemPortal). CN(C)C(=O)NC1CCCCCCC1 [Cycluron] is reported with vapor pressure -7 (log10 mmHg) (via PubChem). Listed for Cc1ccc(C(C)N)cc1 (stereo not drawn) [1-(4-Methylphenyl)ethanamine]: vapor pressure -0.708 (log10 mmHg) (via eChemPortal).